This is a selection; strong and weak results do not stand in their true shares. Active and inactive are the calls of the source. Cut-off read from the data, not from the text of the source: active = activity change below about -80%; inconclusive = between about -30% and that limit; inactive = weaker than that.
Assay: Small Molecules that selectively kill Giardia lamblia: qHTS;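 note: parasites exposed to compound for two days anaerobically before the ATP read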
Conditions: Giardia lamblia trophozoite viability; at 7.66 µM; hits give low values
Source text: Giardia lamblia is a human pathogen afflicting impoverished nations, and the most common cause of outbreaks of diarrhea in the United States. Giardia has been classified by the CDC as a category B bioterrorism organism. The favored anti giardiasis drugs in the US are metronidazole or tinidazole, compounds that have undesirable side effects. Moreover, increasing resistance to drug regimes and recurrence are a concern. It is thus clear that alternative drug treatments are needed.
In a collaboration between the University of Maryland, College Park and the NIH Chemical Genomics Center, a bioluminescence Giardia viability assay based on the trophozoites' ATP content was developed. This assay is suitable for high throughput screening, and miniaturized the assay for compound screening in 1536-well plates. The goal of the project is to screen the Molecular Libraries Small Molecule Repository (MLSMR) for compounds that selectively kill Giardia trophozoites.
NIH Chemical Genomics Center [NCGC]
NIH Molecular Libraries Probe Centers Network [MLPCN]
Assay Submitter (PI): Osnat Herzberg, University of Maryland, College Park, MD.
1. Dispense 2 ul/well media
2. Dispense 23 nl/well compounds
3. Dispense 4 ul/well Giardia trophozoites at a concentration of 100 cells/well
4. Incubate 48 hrs at 37 deg C anaerobically
5. Dispense 4 ul/well ATPLite 1-Step Luminescence assay kit
6. Incubate 15-30 min at room temperature
7. Read luminescence signal on ViewLux plate reader
% is set by controls: 0 for no effect and ±100 for the full control effect.

Compound	activity change
CC(C)CC(=O)NC(Sc1ccc(Cl)cc1)C(Cl)(Cl)Cl (centres undefined)	inactive: 0.469%
Nc1cc(N)c2nonc2c1[N+](=O)[O-]	inactive: 10.8%
O=C(NC(Sc1ccncn1)C(Cl)(Cl)Cl)c1ccccc1 (centres undefined)	inactive: 7.02%
Oc1ccccc1CNc1ccccn1	inactive: -6.75%
Cc1ccc(N/C(=N/P(=O)(N2CCOCC2)N2CCOCC2)N2CCOCC2)cc1	inactive: 2.89%
CN(C(=O)Cc1ccc(Cl)c(Cl)c1)[C@H]1CCCC[C@H]1N1CCCC1	inactive: -3.06%
Cc1ccc(OP(=O)(Nc2nccs2)Oc2ccc(C)cc2)cc1	inactive: 5.86%
COc1ccccc1OP(=O)(Nc1ccc(C)cn1)Oc1ccccc1OC	inactive: -9.33%
Clc1ccc(Cl)c(NC2=NCC(CBr)S2)c1 (centres undefined)	inactive: -2.29%
CN1CCCC(OC(=O)C(c2ccccc2)c2ccccc2)C1 (centres undefined)	inactive: -11.5%
CCN(N=Nc1nonc1N)c1nonc1N	inactive: -1.45%
CCCC1OP(N)(=O)OCC1CC (centres undefined)	inactive: -1.64%
CC(=O)Nc1ccc([As](=O)(O)O)cc1	inactive: -4.66%
O=P(Nc1nc2ccc(Cl)cc2s1)(c1ccccc1)c1ccccc1	inactive: -22.7%
Cc1ccc(NP(=O)(Oc2ccccc2F)Oc2ccccc2F)nc1	inactive: -4.8%
CN(C(=O)Cc1ccc(Cl)c(Cl)c1)[C@H]1CCCC[C@@H]1N1CCCC1	inactive: 3.55%
CCOP(=O)(Nc1ccccc1)OCC	inactive: -5.08%
Cc1cc(SC(NC(=O)c2ccc(F)cc2)C(Cl)(Cl)Cl)ncn1 (centres undefined)	inactive: 2.87%
CC(C)(C)C(=O)NC(Sc1ccncn1)C(Cl)(Cl)Cl (centres undefined)	inactive: 0.906%
O=[N+]([O-])c1ncn(CCn2ncnc2[N+](=O)[O-])n1	inactive: -17.9%
O=[N+]([O-])c1cccc(NC2=NCC(CBr)S2)c1 (centres undefined)	inactive: -21.1%
COC(=O)C1(C)COP(=O)(Nc2ccccc2)OC1 (centres undefined)	inactive: -3.37%

Compound	activity change
O=C(O)CNc1ccc([As](=O)(O)O)cc1	inactive: -8.35%
O=P1(N(CCCl)CCCl)OCCCS1 (centres undefined)	inactive: -18.5%
O=C(Nc1cc([As](=O)(O)O)ccc1O)c1ccccc1	inactive: -10.1%
O=P(/N=c1/nc(-c2ccccc2)n(-c2ccccc2)s1)(Nc1ccccc1)Nc1ccccc1	inactive: 31.1%
C[N+]1=C2C=CC=CC=C2SC12C([N+](=O)[O-])=CC([N+](=O)[O-])=C[C-]2[N+](=O)[O-] (centres undefined)	active: -86.3%
Nc1ccc([As](=O)(O)c2ccc(N)cc2)cc1	inactive: 0.0025%
CCN(/C(=N/P(=O)(N1CCOCC1)N1CCOCC1)N1CCOCC1)c1ccc(OC)cc1	inactive: -0.5%
CN(C)C(=O)OCCc1n(C)cc[n+]1C	inactive: -0.919%
CC(C)=N/N=C(\N)N[N+](=O)[O-]	inactive: 1.62%
CC1CCN(C(=O)Oc2c(Cl)cc(Cl)c3cccnc23)CC1	inactive: 17.6%
COc1ccc(C2=NCC(CBr)S2)cc1 (centres undefined)	inactive: -1.19%
CC(=O)N1C2C3N(C(C)=O)C1C1N(C(C)=O)C(C(N1C(C)=O)N3C(C)=O)N2C(C)=O	inactive: -15.9%
CCc1nc2c(n1)c1c(non1O)c1c2no[n+]1[O-]	inactive: -8.45%
O=[N+]([O-])c1cc([N+](=O)[O-])c(CCNc2ccccc2)c([N+](=O)[O-])c1	inactive: -17.9%
Cc1ccc(NP(=O)(Oc2ccccc2)Oc2ccccc2)nc1	inactive: -28.5%
CC(C)C(=O)NC(Sc1ccccc1)C(Cl)(Cl)Cl (centres undefined)	inactive: 8.35%
O=P(Nc1nccs1)(c1ccccc1)c1ccccc1	inactive: 1.01%
c1nnnn1CCn1cnnn1	inactive: 15.2%
O=[N+]([O-])c1ccc(O)c(/C=N/Nc2ccc([N+](=O)[O-])cc2[N+](=O)[O-])c1	inactive: 17%
O=[N+]([O-])c1ncn(CCn2cnc([N+](=O)[O-])n2)n1	inactive: -7.33%
CC(=O)NC(SC(=S)N(C)C)C(Cl)(Cl)Cl (centres undefined)	inactive: 3.55%
C(Cc1nn[nH]n1)Cc1nn[nH]n1	inactive: -12.5%

Compound	activity change
O=C(OC1CN2CCC1CC2)c1cccc(Cl)c1 (centres undefined)	inactive: 1.57%
COc1ccc(N)c([N+](=O)[O-])c1[N+](=O)[O-]	inactive: -18.1%
O=P(Nc1ccccn1)(c1ccc(Br)cc1)c1ccc(Br)cc1	inactive: 14.3%
CN(C)C1(CNC(=O)c2ccc(Cl)c(S(N)(=O)=O)c2)CCCCC1	inactive: -0.322%
C[C@H]1OP(=O)(Oc2ccccc2)[C@H](O)[C@H](O)[C@H]1N=[N+]=[N-] (some centres undefined)	inactive: 9.64%
O=P(Nc1nc2ccccc2s1)(c1ccccc1)c1ccccc1	inactive: -3.16%
Cc1ccc(OP(=O)(Nc2ccccn2)Oc2ccc(C)cc2)cc1	inactive: 5.06%
CC(=O)NC(SC(=S)N(CC(C)C)CC(C)C)C(Cl)(Cl)Cl (centres undefined)	inactive: -19.9%
COC(=O)c1cc2c(s1)N=C(c1ccccc1)N(C)P2(=O)N1CCOCC1 (centres undefined)	inactive: -20.8%
CCC(=O)N1C2C3N(C(=O)CC)C1C1N(C(=O)CC)C(C(N1C(=O)CC)N3C(=O)CC)N2C(=O)CC	inactive: 7.91%
O=C(OC1CN2CCC1CC2)c1ccccc1 (centres undefined)	inactive: -9.71%
CN(C)C(=O)Oc1noc2ccccc12	inactive: -9.49%
Cc1ccccc1OP(=O)(Nc1ccccn1)Oc1ccccc1C	inactive: -6.32%
CC(NC(=O)COC(=O)C(O)(c1ccccc1)c1ccccc1)c1ccccc1 (centres undefined)	inactive: -6.3%
CCNC(=S)/N=C(\N)N[N+](=O)[O-]	inactive: 20.5%
O=C(NC1CCS(=O)(=O)C1)NP(=S)(Oc1ccccc1)Oc1ccccc1 (centres undefined)	inactive: -11.3%
Cc1ccc(NP(=O)(Oc2cccc(C)c2)Oc2cccc(C)c2)nc1	inactive: -2.44%
c1ccc(-c2nn[nH]n2)c(-c2nn[nH]n2)c1	inactive: -23.1%
O=P1(N(CCCl)CCCl)OCCC2CCCCN21 (centres undefined)	inactive: 20.1%
COC(=O)C1(C)COP(=O)(NCc2ccccc2)OC1 (centres undefined)	inactive: -19.8%
